Yeast mating assay B: variants of the scFv Ab-14

Source: Li et al. 2023 (doi:10.1038/s41467-023-39022-2), MIT Lincoln Laboratory and A-Alpha Bio; data file from the FLAb repository.

Target peptide (SARS-CoV-2 spike, HR2 region): PDVDLGDISGINAS

The variants keep the light chain, the linker and the frameworks of Ab-14 (scFv order VH, the linker GGGGSGGGGSGGGGS, VL).
VH: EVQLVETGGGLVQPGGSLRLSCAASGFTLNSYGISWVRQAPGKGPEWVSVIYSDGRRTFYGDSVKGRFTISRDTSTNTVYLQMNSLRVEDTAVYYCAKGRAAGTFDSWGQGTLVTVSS
VL: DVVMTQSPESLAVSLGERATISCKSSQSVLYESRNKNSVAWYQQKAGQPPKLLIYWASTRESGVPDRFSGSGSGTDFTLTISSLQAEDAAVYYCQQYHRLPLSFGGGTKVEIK

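Phage display of a naive human antibody library on the peptide gave the parent. Designed CDR sequences, proposed from the first random library and measured here. Several design methods are mixed in this list. Affinity was read by AlphaSeq, a pooled yeast mating assay with surface-displayed partners. After mating in shaken culture at 30 °C for 16 h, diploids were selected and their barcode pairs sequenced. A regression on co-assayed BCL2-family reference pairs converts the normalised counts of each replicate to an apparent Kd. The assay was run in six technical replicates.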

Variants are written as CDR1, CDR2 and CDR3 of the heavy chain (limits as in the source). Parent: GFTLNSYGIS, VIYSDGRRTFYGDSVK, GRAAGTFDS.
Variants here have more than six changes.
Values are apparent Kd, the geometric mean of the replicates that gave a signal; lower means stronger binding.
"nd" means that the variant was in the library but no mating with the target was seen in any replicate; the authors take this as a sign of poor binding, and no number exists.
The authors' rule: three or more of the six replicates give a measured affinity, fewer mean a poor binder.

The variant EFDLNNYGIS / VIYADGLRTAYETSFK / GDNAGTFVS gave nd (0 of 6 replicates; controls 1 of 18). With GFNLDEYGVS / VIYADGHRTAYVNTVK / GKTGFVDDD the result was nd (0 of 6 replicates; controls 0 of 18). With EFDLNEYGIS / VIYADGHRTFYAEHVK / GTNAGVFDT the result was nd (0 of 6 replicates; controls 0 of 18). With GFDVDEYGIS / VIYADGFRTSYTADVK / GSQVGNALV the result was 610 nM (1 of 6 replicates; controls 0 of 18). The variant GFDLDEYGIS / VIYADGRRTFYVDSVK / GSNAGTFDM showed 210 pM (6 of 6 replicates; controls 0 of 18).

For GFTLDEYGIS / VIYADGMRTFYTDSVK / GGNAGTFDV, the assay gave 410 pM (6 of 6 replicates; controls 0 of 18). For GMDLQDYGIS / VIYADGRRTAFSHSVK / GQIAGTFNF, the assay gave 330 pM (6 of 6 replicates; controls 0 of 18). The variant GFDLDEYGIS / VIYADGVRQAYADSVK / GNVAGTFDV gave 350 pM (6 of 6 replicates; controls 0 of 18). The variant GFGLDEYGIS / VIYADGMRANYATNVK / GYQAGVIST gave 180 nM (1 of 6 replicates; controls 0 of 18). The variant GFDLNEYGIS / VIYADGKRTAYIDSVK / GNQAGTFDV showed 390 pM (6 of 6 replicates; controls 0 of 18).

For GFDLNEYGIS / VIYADGRRTFYADSVK / GEFAGTFDI, the assay gave 470 pM (6 of 6 replicates; controls 1 of 18). The variant GFDLNEYGIS / VIYADGMRTAYTDSVK / GEVAGTFDT showed 4.6 nM (6 of 6 replicates; controls 0 of 18). The variant GKDIEEYGIS / VIYADGVRAAYADSVK / GENMDIMTD gave nd (0 of 6 replicates; controls 1 of 18). The variant GFDLNEYGIS / VIYADGIREHYKDSVK / GVVFGNVLF showed nd (0 of 6 replicates; controls 0 of 18). The variant GFEIEEYGIS / VIYADGQRKSYINSVK / GTVGVTVMY gave nd (0 of 6 replicates; controls 0 of 18).

The variant GFWLEEYGIS / VIYSDGWRTFYEDSVK / GTEAGTFDS gave 10 nM (6 of 6 replicates; controls 0 of 18). With GFNLDEYGIS / VIYADGRRTFYADSVK / GEHAGTFDI the result was 270 pM (6 of 6 replicates; controls 0 of 18). The variant GFKLDEYGIS / VIYADGQRKHYADSVK / GQINVYYTA gave nd (0 of 6 replicates; controls 0 of 18). With GFDLNEYGIS / VIYADGMRTFYADDVK / GEVAGTFDQ the result was 350 pM (6 of 6 replicates; controls 2 of 18). For GFDLNEYGIS / VIYADGRRTQYIDSVK / GEAAGTFDK, the assay gave 810 pM (6 of 6 replicates; controls 0 of 18).

The variant GFDLEEYGIS / VIYADGQRTAYSDSVK / GNVAGTFDV gave 150 pM (6 of 6 replicates; controls 0 of 18). For GFELDEYGIS / VIYADGARTGYVDNVK / GEAGIDFHV, the assay gave nd (0 of 6 replicates; controls 0 of 18). With GFDLDEYGIS / VIYADGRRTAYIDSVK / GNQAGTFDV the result was 200 pM (6 of 6 replicates; controls 0 of 18). With GFDLNEYGIS / VIYADGKRTFYTDSVK / GEHAGTFDV the result was 290 pM (6 of 6 replicates; controls 1 of 18). The variant GFNLDEYGIS / VIYADGMRTFYSDSVK / GEAAGTFDV showed 420 pM (6 of 6 replicates; controls 0 of 18).

The variant GFNFDEYGIS / VIYADGMRRAYVDDVK / GSHSDVFNM gave nd (0 of 6 replicates; controls 0 of 18). For GFDLNEYGIS / VIYADGMRTFYADSVK / GNQAGTFIS, the assay gave 2.0 nM (6 of 6 replicates; controls 1 of 18). For GFDLNEYGIS / VIYADGRRTAYTDSVK / GQLAGTFDT, the assay gave 290 pM (6 of 6 replicates; controls 0 of 18). The variant GFDINEYGVS / VIYADGMRSYYAGKVK / GSNGALFDV showed nd (0 of 6 replicates; controls 1 of 18). The variant GFDLGEYGIS / VIYADGKRTACVENVK / GTFGGTLLD gave nd (0 of 6 replicates; controls 0 of 18).

For GFDLNEYGIS / VIYADGLRTAYADSVK / GEVAGTFDL, the assay gave 540 pM (6 of 6 replicates; controls 0 of 18). With GFDLNEYGIS / VIYADGRRTAYADSVK / GEAAGTFDK the result was 340 pM (6 of 6 replicates; controls 0 of 18). The variant GFDLNEYGIS / VIYADGRRTQYIDSVK / GEQAGTFDE gave 200 pM (6 of 6 replicates; controls 0 of 18). With GFDLNEYGIS / VIYADGKRTAYSDSVK / GQNAGTFDL the result was nd (0 of 6 replicates; controls 0 of 18). For GFDLDEYGIS / VIYADGKRTAYADSVK / GSNAGTFDV, the assay gave 1.7 nM (5 of 6 replicates; controls 0 of 18).

With GFDLQEYGIS / VIYADGYRTAYKQKVK / GQIAGGQFD the result was nd (0 of 6 replicates; controls 1 of 18). With GFDLNSYGIS / VIYQDGRRKFYGDKFK / GRAAGWFNS the result was nd (0 of 6 replicates; controls 0 of 18). For GFDLNEYGIS / VIYADGMRTAYTDSVK / GNNAGTFDI, the assay gave 590 pM (6 of 6 replicates; controls 1 of 18). For GYDLDQYGIS / VIYADGMRSYYADSVK / GHEGGILYV, the assay gave nd (0 of 6 replicates; controls 1 of 18). The variant GFDLDEYGIS / VIYADGMRTAYADSVK / GENAGTFVI gave nd (0 of 6 replicates; controls 1 of 18).

The variant GFDLTEYGIS / VIYADGRRTEYDNDVK / GQVAGIFLD showed nd (0 of 6 replicates; controls 0 of 18). The variant GFDLNEYGIS / VIYADGMRTAYAESVK / GNQAGTFDV gave 140 pM (6 of 6 replicates; controls 0 of 18). For GFMLYSYGIS / VIYADGRRPFYLDSCK / GRAAGTNKS, the assay gave nd (0 of 6 replicates; controls 0 of 18). The variant GFDLNEYGIS / VIYADGQRTFYTDSVK / GGNAGTFDV gave 460 pM (6 of 6 replicates; controls 2 of 18). The variant GFQIEEYGIS / VIYADGDRANYDAKVK / GQIAGTLDM showed 1.1 nM (3 of 6 replicates; controls 0 of 18).

With GFDLNEYGIS / VIYADGMRTAYTDDVK / GNVAGTFDT the result was 380 pM (6 of 6 replicates; controls 0 of 18). With GADIQEYGIS / VIYADGIRSAYAQDVK / GEIGSQFDI the result was 2.4 nM (1 of 6 replicates; controls 0 of 18).

For reference, 3 entries of the list once more:

| CDR-H1 | CDR-H2 | CDR-H3 | Kd (apparent) | seen in | control signals |
|---|---|---|---|---|---|
| GFGLDEYGIS | VIYADGMRANYATNVK | GYQAGVIST | 180 nM | 1 of 6 | 0 of 18 |
| GFNLDEYGVS | VIYADGHRTAYVNTVK | GKTGFVDDD | nd | 0 of 6 | 0 of 18 |
| GFDLNEYGIS | VIYADGRRTFYADSVK | GEFAGTFDI | 470 pM | 6 of 6 | 1 of 18 |

The range of this assay differs from that of the first round, and the authors advise against merging the two.
As a blank, each scFv also met three strains without target: over all heavy chain designs, 1% of these pairings were detected, typically at 120 nM and seldom below 7.0 nM. For each scFv, signals with the empty controls are counted beside the result.